Data as given in US9248103B2, “Method for improving water solubility of slightly soluble substance” (Kabushiki Kaisha Sangi, priority 2012, dated 2016).

Test: Dissolution test of poorly-soluble substances, 2nd fluid for disintegration test (pH 6.8) of the Japanese Pharmacopoeia;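 further: Comparative example rows not the inventive coated formulation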
Assay type: physicochemical
Details: Alacepril

- Dissolved amount, elution time 360 min: 2548.2 µg/mL
Structure (SMILES): CC(=O)SC[C@@H](C)C(=O)N1CCC[C@H]1C(=O)N[C@@H](Cc1ccccc1)C(=O)O [8-1, Alacepril]
